Measured values from patent US20250019461A1, “HER3 ANTIGEN-BINDING MOLECULES” (Hummingbird Bioscience Pte. Ltd., priority 2018, published 2025).

Key:
N87 cells [1] = assay: Antibody internalisation, pHrodo iFL Green imaging; type: cell-based; settings: 120 nM antibody, 24 hours
N87 cells [2] = assay: Antibody internalisation by flow cytometry; type: cell-based; settings: 0 min to 4.5 hour

“trastuzumab: anti-HER2 antibody trastuzumab” was tested, and the internalization (N87 cells [1]) was “modest internalization” and the internalisation (N87 cells [2]) was “substantial internalisation”.
